The values below come from patent US20060210527A1, “Cyclodextrin-based polymers for therapeutics delivery” (published 2006).

The subject of series [1] is human LS174T colon carcinoma. As to the kind of experiment: Antitumor efficacy study, LS174T xenograft. To be noted: for Ns (mice surviving) / Median Tumor Burden: Day 114; for Median TTE: endpoint 1500 mg; for Maximum MBW loss: tumor-bearing mice.
For another series, the system named is nude mice. Description: Determination of maximum tolerable dose (MTD) for CDP-CPT conjugates.
Setting [2] is: Group 3: 100 mg irinotecan/kg i.p. Qwk x 3.

Values joined by “and” are separate entries in the source; they are usually repeats but may differ in a detail not shown here. Equal values may be shown once.

With `CC[C@@]1(O)C(=O)OCc2c1cc1n(c2=O)Cc2cc3ccccc3nc2-1`, in series [1] (Group 2: 9 mg/kg i.p. Q4D x 2), the “Ns (mice surviving)” value is reported as “−(0)”, the “Median TTE” value turned out to be 51.4 days and the “Maximum MBW loss” value is listed as 13.1%.
As to Poly(CDDCys-PA-PEG)-Gly-CPT, the “NTR/N (treatment-related deaths to mice treated)” value is 0/5 in the series with nude mice (2.25 mg CPT/kg i.v. Days 1, 5, 9); 0/5 in the series with nude mice (4.5 mg CPT/kg i.v. Days 1, 5, 9); 0/5 in the series with nude mice (9 mg CPT/kg i.v. Days 1, 5, 9); 3/3 in the series with nude mice (18 mg CPT/kg i.v. Days 1, 5, 9); 3/3 in the series with nude mice (36 mg CPT/kg i.v. Days 1, 5, 9); 3/3 in the series on nude mice (54 mg CPT/kg i.v. Days 1, 5, 9). The MTD with nude mice (i.v. Days 1, 5, 9, non-tumor bearing nude mice) was 9 mg CPT/kg. The “Median Tumor Burden” value in series [1] (4.5 mg CPT/kg i.v. Q4D x 3) was 668 mg; in series [1] (9 mg CPT/kg i.v. Q4D x 3) it was 394 mg. The “Ns (mice surviving)” value in series [1] (4.5 mg CPT/kg i.v. Q4D x 3) is given as 2; in series [1] (9 mg CPT/kg i.v. Q4D x 3), 4. For the same molecule, the “Median TTE” value in series [1] (4.5 mg CPT/kg i.v. Q4D x 3) was 74.2 days; in series [1] (9 mg CPT/kg i.v. Q4D x 3, 114 days = maximum possible) it was 114 days and 114.0 days. The “Maximum MBW loss” value in series [1] (at MTD, 9 mg CPT/kg i.v. Q4D x 3) worked out at 3.4%.
On to `CCc1c2c(nc3ccc(OC(=O)N4CCC(N5CCCCC5)CC4)cc13)-c1cc3c(c(=O)n1C2)COC(=O)[C@]3(O)CC`, for which, in series [1] (setting [2]), the “Median Tumor Burden” value came out at 1152 mg, the “Ns (mice surviving)” value is 3 and the “Median TTE” value was determined as 68.7 days. For the same molecule, in series [1] (Group 3: 100 mg irinotecan/kg i.p. Qwk x 3, listed as irinotecan), the “Median Tumor Burden” value is on record as 1,152 mg.
